From patent US20180321224A1, “COMPOSITIONS AND METHODS FOR INCREASING HEPATOCYTE FUNCTIONAL LIFETIME IN VITRO” (Colorado State University Research Foundation, priority 2015, published 2018)

Test system: primary human hepatocytes in micropatterned co-cultures (MPCCs)
Experiment: Hepatotoxicity screening in MPCCs pre-cultured in physiologic medium (urea synthesis)
Settings: after 2 treatments over 5 days at 25*Cmax and 100*Cmax, serum free medium; MPCCs pre-cultured in physiologic medium 10 days

SMILES: CN(CCOc1ccc(CC2SC(=O)NC2=O)cc1)c1ccccn1 (stereo not shown) [rosiglitazone]
- Toxicity categorization by urea synthesis in MPCC supernatants (toxic if below 50% of vehicle control): no significant loss in urea synthesis
